The values that follow come from ChEMBL document CHEMBL1135777, “Three-dimensional quantitative structure-activity relationships of mazindol analogues at the dopamine transporter” (J Med Chem, 2002).

Amino acid sequences for entries named in this document (tags omitted).
UniProt P23977, whole entry: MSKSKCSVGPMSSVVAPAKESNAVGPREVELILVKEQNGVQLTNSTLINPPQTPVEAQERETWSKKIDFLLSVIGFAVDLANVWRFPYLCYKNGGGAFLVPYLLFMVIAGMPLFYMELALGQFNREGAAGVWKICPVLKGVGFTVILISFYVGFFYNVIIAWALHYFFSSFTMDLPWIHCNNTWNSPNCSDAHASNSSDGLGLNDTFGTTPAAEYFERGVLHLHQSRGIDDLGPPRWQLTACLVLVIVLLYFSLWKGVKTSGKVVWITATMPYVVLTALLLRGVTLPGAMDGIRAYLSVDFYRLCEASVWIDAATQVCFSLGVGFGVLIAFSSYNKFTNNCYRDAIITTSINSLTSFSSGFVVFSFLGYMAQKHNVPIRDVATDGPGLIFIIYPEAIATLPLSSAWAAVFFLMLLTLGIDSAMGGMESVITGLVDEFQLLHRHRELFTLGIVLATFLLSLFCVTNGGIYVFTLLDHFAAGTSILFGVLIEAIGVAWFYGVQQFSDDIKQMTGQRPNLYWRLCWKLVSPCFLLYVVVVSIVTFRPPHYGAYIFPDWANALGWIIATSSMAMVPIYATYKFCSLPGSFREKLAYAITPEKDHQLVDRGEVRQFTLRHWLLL

This experiment has as its target Sodium-dependent dopamine transporter (Rattus norvegicus, UniProt P23977). The experiment is described as follows: Ability to displace [3H]WIN-35428 from dopamine transporter in rat caudate putamen tissue. The experiment is classed as tissue-based.

As a reminder, the IC50 is the concentration that inhibits the measured activity by half. A low value points to inhibition by little substance. `O=C(c1ccc(Cl)cc1)c1ccc(C2=NCCN2)cc1` gave an IC50 of 3.1 µM.
To `CC1(O)c2ccccc2C2=NCCN21` (configuration not stated) belongs 67 µM.
